Measurements published in ChEMBL document CHEMBL1131422, “N-(2-Benzoylphenyl)-L-tyrosine PPARgamma agonists. 1. Discovery of a novel series of potent antihyperglycemic and antihyperlipidemic agents” (J Med Chem, 1998).

Target: T1, Peroxisome proliferator-activated receptor alpha (Homo sapiens) (UniProt Q07869)
T1 sequence (whole entry): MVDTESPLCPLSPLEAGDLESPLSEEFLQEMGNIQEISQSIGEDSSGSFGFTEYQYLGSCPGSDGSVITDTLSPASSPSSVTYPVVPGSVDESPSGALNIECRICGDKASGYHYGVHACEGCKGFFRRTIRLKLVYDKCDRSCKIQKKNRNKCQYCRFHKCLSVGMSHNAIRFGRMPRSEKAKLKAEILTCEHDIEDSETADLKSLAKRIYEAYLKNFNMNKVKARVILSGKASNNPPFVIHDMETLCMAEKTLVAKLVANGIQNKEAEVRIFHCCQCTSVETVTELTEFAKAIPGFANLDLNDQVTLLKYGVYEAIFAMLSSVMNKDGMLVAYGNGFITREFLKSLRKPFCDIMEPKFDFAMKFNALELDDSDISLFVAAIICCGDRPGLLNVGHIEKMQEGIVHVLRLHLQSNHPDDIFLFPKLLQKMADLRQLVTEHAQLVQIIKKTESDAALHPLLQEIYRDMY
Experiment: The compound was tested in vitro for inhibiting the 50% binding of Peroxisome proliferator activated receptor alpha

How did the Log Ki turn out when Cc1oc(-c2ccccc2)nc1CCOc1ccc(C[C@H](Nc2ccccc2C(=O)c2ccccc2)C(=O)O)cc1 [FARGLITAZAR] was run?
Its Log Ki is 6.31 µM.
